From ChEMBL document CHEMBL5579818, “Identification of 3-(9H-carbazol-9-yl)-2-(1,3-dioxoisoindolin-2-yl)propanoic acids as promising DNMT1 inhibitors” (Eur J Med Chem, 2024) come the findings set out here.

The chains behind the UniProt entries cited, without tags or fusion partners. Where a name states a change or a piece, a line headed by the entry shows the natural chain unless it says otherwise.
UniProt P26358: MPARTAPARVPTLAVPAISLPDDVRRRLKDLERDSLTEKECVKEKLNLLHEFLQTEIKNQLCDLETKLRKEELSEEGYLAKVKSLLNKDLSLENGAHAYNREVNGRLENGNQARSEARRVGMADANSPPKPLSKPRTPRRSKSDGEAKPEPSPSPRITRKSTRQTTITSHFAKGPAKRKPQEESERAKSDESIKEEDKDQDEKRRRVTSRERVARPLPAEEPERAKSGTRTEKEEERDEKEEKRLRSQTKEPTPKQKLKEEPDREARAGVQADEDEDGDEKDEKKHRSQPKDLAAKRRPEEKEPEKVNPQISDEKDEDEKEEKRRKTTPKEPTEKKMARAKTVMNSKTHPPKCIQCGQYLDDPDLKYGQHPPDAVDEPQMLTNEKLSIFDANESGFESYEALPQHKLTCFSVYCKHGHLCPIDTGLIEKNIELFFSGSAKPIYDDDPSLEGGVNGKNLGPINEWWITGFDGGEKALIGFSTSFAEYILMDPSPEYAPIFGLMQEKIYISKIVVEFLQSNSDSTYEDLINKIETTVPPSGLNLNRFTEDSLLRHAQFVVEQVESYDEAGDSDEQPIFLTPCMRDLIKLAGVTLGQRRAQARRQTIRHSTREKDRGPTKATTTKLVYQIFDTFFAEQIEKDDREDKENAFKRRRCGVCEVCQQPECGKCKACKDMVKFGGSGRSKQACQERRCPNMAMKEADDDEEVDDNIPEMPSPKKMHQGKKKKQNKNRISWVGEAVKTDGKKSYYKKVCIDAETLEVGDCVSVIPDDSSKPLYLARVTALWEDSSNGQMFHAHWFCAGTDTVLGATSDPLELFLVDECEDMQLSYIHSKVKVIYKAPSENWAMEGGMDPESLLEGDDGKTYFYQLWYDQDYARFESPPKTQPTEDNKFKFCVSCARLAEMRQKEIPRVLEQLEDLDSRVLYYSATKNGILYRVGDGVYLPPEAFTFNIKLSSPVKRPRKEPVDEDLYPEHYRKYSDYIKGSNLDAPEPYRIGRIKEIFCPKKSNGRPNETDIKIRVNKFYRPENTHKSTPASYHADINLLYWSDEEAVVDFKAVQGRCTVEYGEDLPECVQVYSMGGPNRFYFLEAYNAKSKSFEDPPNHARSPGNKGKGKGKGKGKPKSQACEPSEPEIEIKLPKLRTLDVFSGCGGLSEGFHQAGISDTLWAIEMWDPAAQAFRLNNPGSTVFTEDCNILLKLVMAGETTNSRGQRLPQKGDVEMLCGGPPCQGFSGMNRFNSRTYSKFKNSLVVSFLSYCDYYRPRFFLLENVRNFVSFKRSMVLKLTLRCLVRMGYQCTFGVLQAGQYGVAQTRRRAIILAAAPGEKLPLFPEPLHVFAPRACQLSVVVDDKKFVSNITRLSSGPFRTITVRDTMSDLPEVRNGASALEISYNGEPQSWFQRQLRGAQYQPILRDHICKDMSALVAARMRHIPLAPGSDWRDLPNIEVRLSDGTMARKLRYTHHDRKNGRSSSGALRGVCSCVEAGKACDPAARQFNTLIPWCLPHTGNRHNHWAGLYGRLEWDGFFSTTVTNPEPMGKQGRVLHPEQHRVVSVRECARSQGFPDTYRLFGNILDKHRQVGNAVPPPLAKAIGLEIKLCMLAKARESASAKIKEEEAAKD

Each structure is given as a SMILES string.

This test has as its target DNA (cytosine-5)-methyltransferase 1 (Homo sapiens, UniProt P26358). The test can be described thus: Binding affinity to human DNMT1 expressed in Escherichia coli assessed as binding constant by SPR analysis. (In general: SPR reads the build-up and loss of mass on a sensor chip optically.)

For the compound `CC(C)(C)c1ccc2c(c1)c1cc(C(C)(C)C)ccc1n2CC(C(=O)O)N1C(=O)c2ccccc2C1=O` (racemic), the Ka is 65.6 mM⁻¹ s⁻¹.
The value for `CC(C)(C)c1ccc2c(c1)c1cc(C(C)(C)C)ccc1n2C[C@H](C(=O)O)N1C(=O)c2ccccc2C1=O` was 73.7 mM⁻¹ s⁻¹; that for `O=C(O)[C@@H](Cn1c2ccc(Cl)cc2c2cc(Cl)cc(Cl)c21)N1C(=O)c2ccccc2C1=O` was 218 mM⁻¹ s⁻¹.
`O=C(O)C(Cn1c2ccc(Cl)cc2c2cc(Cl)cc(Cl)c21)N1C(=O)c2ccccc2C1=O` (racemic): the Ka was 219 mM⁻¹ s⁻¹.
With `O=C(O)[C@H](Cn1c2ccc(Cl)cc2c2cc(Cl)cc(Cl)c21)N1C(=O)c2ccccc2C1=O` the figure was 194 mM⁻¹ s⁻¹.
With `CC(C)(C)c1ccc2c(c1)c1cc(C(C)(C)C)ccc1n2C[C@@H](C(=O)O)N1C(=O)c2ccccc2C1=O` the figure was 81.8 mM⁻¹ s⁻¹.
